Earlier results, collected in publication PMC6013267 (Medicinal chemistry research : an international journal for …, 2018).

System: amyloid β
Details: ref Salloway et al. 2014, Doody et al. 2014, Siemers et al. 2016, cited from earlier work

Bapineuzumab: Anti-amyloid β monoclonal antibody
clinical outcome (mild to moderate AD): Did not improve clinical outcomes | Aβ plaque load (measured by PET imaging) before and after antibody treatment: did not change significantly
